# Patent US12472140B2, “Composition and method for transdermal delivery of cannabidiol (CBD) and tetrahydrocannabinol (THC)” (Ovation Science Inc., priority 2020, dated 2025)
# Test: Six-hour Franz Cell study of skin penetration by CBD and THC
# Settings: Example 2, formulated 1:2 CBD:THC (0.34%:0.68%)
smiles,measurement,value
"C=C(C)[C@@H]1CCC(C)=C[C@H]1c1c(O)cc(CCCCC)cc1O [CBD, cannabidiol]",CBD release relative to THC,twice
